Source: PubChem
Sampled rows, rich in hits. Any-hit rate of the full collection: about 1%.
C2C12 statin: suppressors of statin myotoxicity in C2C12 myotubes, primary screen, cell-based, single point, plate reader; C2C12 myotubes + simvastatin, ATP luminescence, 48 h; scaled: DMSO 0, geranylgeraniol control 100; rescue of ATP level, % at 7.49 µM; 330,000 compounds, 0.78% hits; AID 602340, 2012;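 active = mean ATP rescue above about 67%, or every replicate alone reaching that limit, limit read from the data, passing the limit was not always enough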;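 also: myotubes were challenged with 10 µM simvastatin during compound exposure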
CDK5 p35 inh: inhibitors of human CDK5/p35 kinase, primary screen, biochemical, single concentration. Recombinant CDK5/p35, ADP-Glo luminescence, 60 min. AID 488839, 2010. inhibition, % at 10 µM. 330,000 compounds, 0.01% hits;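 active = highest replicate inhibition of at least 50% and at least 75% of replicates reaching 50%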
Yeast UUG start-1: modulators of start codon recognition fidelity in yeast; S. cerevisiae UUG-firefly luciferase reporter, luminescence/redox ratio; activity score, % at 18.7 µM; hit rate 0.13% among 350,000; AID 602363;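 active = replicate mean at a twofold rise or more, about +100% in these data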;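 note: firefly luciferase made from a UUG start codon reports start codon fidelity; reporter light over untreated wells divided by growth signal over untreated wells; some hits fall short of that in this replicate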
Rtt109 HAT inh: inhibitors of C. albicans Rtt109/Vps75 HAT, primary screen, biochemical, ThioGlo CoA-SH fluorescence, plate reader; Histone acetyltransferase RTT109 (Candida albicans (strain SC5314 / ATCC MYA-2876)), …; purified Rtt109/Vps75, 4 h; inhibition, % at 34.9 µM; 330,000 compounds, 0.16% hits; AID 540336, 2011;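 active = inhibition of at least 50% in every replicate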
Cneo AK release: Cryptococcus neoformans cell lysis inducers, primary screen, AK release luminescence, single concentration; C. neoformans lysis, adenylate kinase release luminescence, 4 h; normalised: neutral wells 0, clomiphene wells 100; lysis activity, % at 15 µM; 360,000 compounds, 0.2% hits;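 active = mean lysis activity across replicates of at least 80%, whatever share of replicates individually reach that level; inactive = mean lysis activity below 80%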
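Schedule: static 4 h at 37 °C with compound, 1 h detection; system: C. neoformans cells; benchmarks: Clomiphene as positive control; buffer or medium: fresh YPD medium; measure: luminescence rise reflecting yeast cell lysis; measured by: luminescent adenylate kinase detection reagent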
Yeast UUG start-2: enhancers of UUG start codon usage in yeast, dose response, S. cerevisiae, UUG firefly luciferase, cherry-pick, set 2; shares compounds with Yeast UUG start-1; luminescence, 4 h; 100% means double the DMSO signal; activation, % at 38 µM; 540 tested, under 10 active; AID 652061, 2013;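 active = signal increase whose fitted curve reaches an absolute level of 40 at a concentration under 10 µM; inactive = activity opposite to the expected increase, or the rest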
Each line names hits and unclear results; the compound was inactive in the other large screens (follow-up assays come after a bar, where they were run).

C[C@@H](NC(=O)C[C@@H]1CC[C@H](NC(=O)Nc2ccc3c(c2)OCO3)[C@@H](CO)O1)c1ccccc1	Yeast UUG start-1 127.3 (no result: CDK5 p35 inh, Rtt109 HAT inh) | Yeast UUG start-2 inactive
C[C@@H](NC(=O)C[C@@H]1CC[C@H](NC(=O)C2CCOCC2)[C@H](CO)O1)c1ccccc1	Yeast UUG start-1 170.8 (no result: CDK5 p35 inh, Rtt109 HAT inh) | Yeast UUG start-2 inactive
CCS(=O)(=O)/N=C(\N)c1ccccc1	none
N/C(=N\S(=O)(=O)c1ccc(Cl)s1)c1ccccc1	Yeast UUG start-1 117.4 | Yeast UUG start-2 inactive
CO[C@@H]1CN(C)C(=O)c2ccc(NC(=O)C3CCOCC3)cc2OC[C@@H](C)N(C(C)=O)C[C@H]1C	Yeast UUG start-1 147.1 (no result: CDK5 p35 inh, Rtt109 HAT inh) | Yeast UUG start-2 inactive
CO[C@@H]1CN(C)C(=O)c2ccc(NC(=O)c3nc4ccccc4s3)cc2OC[C@@H](C)N(Cc2ccncc2)C[C@@H]1C	none (no result: CDK5 p35 inh, Rtt109 HAT inh)
CO[C@@H]1CN(C)C(=O)c2ccc(NC(=O)Nc3c(C)noc3C)cc2OC[C@H](C)N(C)C[C@H]1C	none (no result: CDK5 p35 inh, Rtt109 HAT inh)
CO[C@H]1CN(C)C(=O)c2ccc(NC(=O)c3nc4ccccc4s3)cc2OC[C@H](C)N(Cc2ccncc2)C[C@H]1C	Yeast UUG start-1 172.9 (no result: CDK5 p35 inh, Rtt109 HAT inh) | Yeast UUG start-2 inactive
CO[C@@H]1CN(C)C(=O)c2ccc(NC(=O)Nc3c(C)noc3C)cc2OC[C@H](C)N(C)C[C@@H]1C	Yeast UUG start-1 69.2 (no result: CDK5 p35 inh, Rtt109 HAT inh) | Yeast UUG start-2 inactive
CCCC(=O)Nc1ccc2c(c1)C(=O)N(C)C[C@@H](OC)[C@H](C)CN(S(=O)(=O)c1cn(C)cn1)[C@@H](C)CO2	Yeast UUG start-1 133.8 (no result: CDK5 p35 inh, Rtt109 HAT inh) | Yeast UUG start-2 inactive
O=C(NCC[C@H]1CC[C@@H](NS(=O)(=O)c2ccc(Oc3ccccc3)cc2)[C@H](CO)O1)C1CC1	none (no result: CDK5 p35 inh, Rtt109 HAT inh)
O=C(NCC1OCCc2ccccc21)c1ccco1 (configuration not stated)	Yeast UUG start-1 322.9 | Yeast UUG start-2 inactive
C[C@@H]1CCCCO[C@@H](CN(C)Cc2ccc(Cl)c(Cl)c2)[C@H](C)CN([C@H](C)CO)C(=O)c2cc(NC(=O)NC3CCCCC3)ccc2O1	none (no result: CDK5 p35 inh, Rtt109 HAT inh)
CN(C[C@H]1[C@H](c2ccccc2)[C@@H](CO)N1C(=O)c1ccccc1)C(=O)C1CC1	Yeast UUG start-1 155.6 (no result: CDK5 p35 inh, Rtt109 HAT inh) | Yeast UUG start-2 inactive
Cn1nc(CC(=O)NC2CCCCC2)c2ccccc2c1=O	none (no result: Yeast UUG start-1, Cneo AK release) | Yeast UUG start-2 inactive
Cn1nc(CC(=O)NC2CCCCCC2)c2ccccc2c1=O	none | Yeast UUG start-2 inactive
O=C(CN1CCOCC1)N1CCN(c2ccc([N+](=O)[O-])cc2)CC1	none (no result: C2C12 statin, Yeast UUG start-1, Cneo AK release) | Yeast UUG start-2 inactive
CCCNC(=O)N(C)C[C@@H]1Oc2ncc(-c3ccccc3F)cc2C(=O)N([C@H](C)CO)C[C@@H]1C	none (no result: CDK5 p35 inh, Rtt109 HAT inh)
COc1ccc(-c2cn(CC(=O)N3CCC4(CC3)C(=O)NCN4c3ccccc3)nn2)cc1OC	none (no result: C2C12 statin, CDK5 p35 inh, Yeast UUG start-1, Rtt109 HAT inh)
COc1ccc(-c2cn(CC(=O)N3CCN(C)CC3)nn2)cc1OC	Yeast UUG start-1 148.4 (no result: C2C12 statin, CDK5 p35 inh, Rtt109 HAT inh) | Yeast UUG start-2 inactive
CC1(C)CC(=O)C2=C(C1)NC(=S)C(C#N)C21CCCCC1 (configuration not stated)	Yeast UUG start-1 109.7 (no result: C2C12 statin) | Yeast UUG start-2 inactive
C[C@H]1CN([C@@H](C)CO)C(=O)Cc2cc(NC(=O)Nc3ccccc3)ccc2O[C@H]1CN(C)C(=O)Nc1cccc2ccccc12	none (no result: CDK5 p35 inh, Rtt109 HAT inh)
C[C@H](CO)N1C[C@H](C)[C@H](CN(C)C(=O)CN(C)C)Oc2cc(C#CCC3CCCC3)ccc2S1(=O)=O	Yeast UUG start-1 107.3 (no result: CDK5 p35 inh, Rtt109 HAT inh) | Yeast UUG start-2 inactive
C[C@@H]1CN([C@H](C)CO)S(=O)(=O)c2ccc(C#CCC3CCCC3)cc2O[C@@H]1CN(C)C(=O)CN(C)C	Yeast UUG start-1 128.9 (no result: CDK5 p35 inh, Rtt109 HAT inh) | Yeast UUG start-2 inactive
